# Measured values: article PMC9127186, “Molecular Basis Underlying Hepatobiliary and Renal Excretion of Phenolic Acids of Salvia miltiorrhiza Roots (Danshen)” (Frontiers in Pharmacology, 2022)
# Substrate: O=C(O)C(O)Cc1ccc(O)c(O)c1
# Assay: cells, lysate or membranes named
# Details: 5 min incubation, concentrations in Table 1, 37.0 °C
protein,measurement,setting,value
human OAT2 (Homo sapiens) (protein) MGFEELLEQVGGFGPFQLRNVALLALPRVLLPLHFLLPIFLAAVPAHRCALPGAPANFSHQDVWLEAHLPREPDGTLSSCLRFAYPQALPNTTLGEERQSRGELEDEPATVPCSQGWEYDHSEFSSTIATEWDLVCEQKGLNRAASTFFFAGVLVGAVAFGYLSDRFGRRRLLLVAYVSTLVLGLASAASVSYVMFAITRTLTGSALAGFTIIVMPLELEWLDVEHRTVAGVLSSTFWTGGVMLLALVGYLIRDWRWLLLAVTLPCAPGILSLWWVPESARWLLTQGHVKEAHRYLLHCARLNGRPVCEDSFSQEAVSKVAAGERVVRRPSYLDLFRTPRLRHISLCCVVVWFGVNFSYYGLSLDVSGLGLNVYQTQLLFGAVELPSKLLVYLSVRYAGRRLTQAGTLLGTALAFGTRLLVSSDMKSWSTVLAVMGKAFSEAAFTTAYLFTSELYPTVLRQTGMGLTALVGRLGGSLAPLAALLDGVWLSLPKLTYGGIALLAAGTALLLPETRQAQLPETIQDVERKSAPTSLQEEEMPMKQVQN,Vmax,other: human hepatic sinusoidal uptake OAT2 (also renal basolateral),0.00747 ± 0.000308 µmol/min/mg
human OAT3 (Homo sapiens) (protein) MTFSEILDRVGSMGHFQFLHVAILGLPILNMANHNLLQIFTAATPVHHCRPPHNASTGPWVLPMGPNGKPERCLRFVHPPNASLPNDTQRAMEPCLDGWVYNSTKDSIVTEWDLVCNSNKLKEMAQSIFMAGILIGGLVLGDLSDRFGRRPILTCSYLLLAASGSGAAFSPTFPIYMVFRFLCGFGISGITLSTVILNVEWVPTRMRAIMSTALGYCYTFGQFILPGLAYAIPQWRWLQLTVSIPFFVFFLSSWWTPESIRWLVLSGKSSKALKILRRVAVFNGKKEEGERLSLEELKLNLQKEISLAKAKYTASDLFRIPMLRRMTFCLSLAWFATGFAYYSLAMGVEEFGVNLYILQIIFGGVDVPAKFITILSLSYLGRHTTQAAALLLAGGAILALTFVPLDLQTVRTVLAVFGKGCLSSSFSCLFLYTSELYPTVIRQTGMGVSNLWTRVGSMVSPLVKITGEVQPFIPNIIYGITALLGGSAALFLPETLNQPLPETIEDLENWSLRAKKPKQEPEVEKASQRIPLQPHGPGLGSS,Vmax,other: human renal basolateral uptake OAT3,0.000171 µmol/min/mg
human OAT4 (Homo sapiens) (protein) MAFSKLLEQAGGVGLFQTLQVLTFILPCLMIPSQMLLENFSAAIPGHRCWTHMLDNGSAVSTNMTPKALLTISIPPGPNQGPHQCRRFRQPQWQLLDPNATATSWSEADTEPCVDGWVYDRSVFTSTIVAKWDLVCSSQGLKPLSQSIFMSGILVGSFIWGLLSYRFGRKPMLSWCCLQLAVAGTSTIFAPTFVIYCGLRFVAAFGMAGIFLSSLTLMVEWTTTSRRAVTMTVVGCAFSAGQAALGGLAFALRDWRTLQLAASVPFFAISLISWWLPESARWLIIKGKPDQALQELRKVARINGHKEAKNLTIEVLMSSVKEEVASAKEPRSVLDLFCVPVLRWRSCAMLVVNFSLLISYYGLVFDLQSLGRDIFLLQALFGAVDFLGRATTALLLSFLGRRTIQAGSQAMAGLAILANMLVPQDLQTLRVVFAVLGKGCFGISLTCLTIYKAELFPTPVRMTADGILHTVGRLGAMMGPLILMSRQALPLLPPLLYGVISIASSLVVLFFLPETQGLPLPDTIQDLESQKSTAAQGNRQEAVTVESTSL,Vmax,other: human renal apical uptake OAT4,0.0012 ± 0.00014 µmol/min/mg
rat Oat1 (Rattus norvegicus) (protein) MAFNDLLKQVGGVGRFQLIQVTMVVAPLLLMASHNTLQNFTAAIPPHHCRPPANANLSKDGGLEAWLPLDKQGQPESCLRFTSPQWGPPFYNGTEANGTRVTEPCIDGWVYDNSTFPSTIVTEWNLVCSHRAFRQLAQSLYMVGVLLGAMVFGYLADRLGRRKVLILNYLQTAVSGTCAAYAPNYTVYCVFRLLSGMSLASIAINCMTLNVEWMPIHTRAYVGTLIGYVYSLGQFLLAGIAYAVPHWRHLQLVVSVPFFIAFIYSWFFIESARWYSSSGRLDLTLRALQRVARINGKQEEGAKLSIEVLRTSLQKELTLSKGQASAMELLRCPTLRHLFLCLSMLWFATSFAYYGLVMDLQGFGVSMYLIQVIFGAVDLPAKFVCFLVINSMGRRPAQMASLLLAGICILVNGIIPKSHTIIRTSLAVLGKGCLASSFNCIFLYTGELYPTVIRQTGLGMGSTMARVGSIVSPLVSMTAEFYPSMPLFIFGAVPVVASAVTALLPETLGQPLPDTVQDLKSRSRGKQNQQQQEQQKQMMPLQASTQEKNGL,Vmax,other: rat renal basolateral uptake Oat1,0.000636 µmol/min/mg
human OAT1 (Homo sapiens) (protein) MAFNDLLQQVGGVGRFQQIQVTLVVLPLLLMASHNTLQNFTAAIPTHHCRPPADANLSKNGGLEVWLPRDRQGQPESCLRFTSPQWGLPFLNGTEANGTGATEPCTDGWIYDNSTFPSTIVTEWDLVCSHRALRQLAQSLYMVGVLLGAMVFGYLADRLGRRKVLILNYLQTAVSGTCAAFAPNFPIYCAFRLLSGMALAGISLNCMTLNVEWMPIHTRACVGTLIGYVYSLGQFLLAGVAYAVPHWRHLQLLVSAPFFAFFIYSWFFIESARWHSSSGRLDLTLRALQRVARINGKREEGAKLSMEVLRASLQKELTMGKGQASAMELLRCPTLRHLFLCLSMLWFATSFAYYGLVMDLQGFGVSIYLIQVIFGAVDLPAKLVGFLVINSLGRRPAQMAALLLAGICILLNGVIPQDQSIVRTSLAVLGKGCLAASFNCIFLYTGELYPTMIRQTGMGMGSTMARVGSIVSPLVSMTAELYPSMPLFIYGAVPVAASAVTVLLPETLGQPLPDTVQDLESRWAPTQKEAGIYPRKGKQTRQQQEHQKYMVPLQASAQEKNGL,Vmax,other: human renal basolateral uptake OAT1,0.00104 ± 2.2e-05 µmol/min/mg
rat Oat3 (Rattus norvegicus) (protein) MTFSEILDRVGSMGPFQYLHVTLLALPVLGIANHNLLQIFTATTPVHHCRPPPNASIGPWVLPLDPNGKPEKCLRFVHLPNASLPNDTQRATEPCLDGWIYNSTRDTIVIEWDLVCSSNKLKEMAQSIFMAGILVGGPVIGELSDRFGRKPILTWSYLMLAASGSGAAFSPSLPVYMIFRFLCGCSISGISLSTVILNVEWVPTSMRAISSTSIGYCYTIGQFILSGLAYAIPQWRWLQLTSSAPFFIFSLLSWWVPESIRWLVLSGKYSKALKTLQRVATFNGKKEEGKKLTIEELKFNLQKDITSAKVKYGLSDLFRVSILRRVTFCLSLAWFSTGFAYYSLAMGVEEFGVNIYILQIIFGGVDIPAKFITILSLSYLGRRITQSFLLLLAGGAILALIFVPSEMQLLRTALAVFGKGCLSGSFSCLFLYTSELYPTVLRQTGMGISNVWARVGSMIAPLVKITGELQPFIPNVIFGTTALLGGSAAFFLLETLNRPLPETIEDIQNWHKQVQKTKQESEAEKASQIIPLKTGG,Vmax,other: rat renal basolateral uptake Oat3,0.000252 µmol/min/mg
rat Oat2 (Rattus norvegicus) (protein) MGFEDLLDKVGGFGPFQLRNLVLMALPRMLLPMHFLLPVFMAAVPAHHCALPGAPANLSHQDLWLEAHLPRETDGSFSSCLRFAYPQTVPNVTLGTEVSNSGEPEGEPLTVPCSQGWEYDRSEFSSTIATEWDLVCQQRGLNKITSTCFFIGVLVGAVVYGYLSDRFGRRRLLLVAYVSSLVLGLMSAASINYIMFVVTRTLTGSALAGFTIIVLPLELEWLDVEHRTVAGVISTVFWSGGVLLLALVGYLIRSWRWLLLAATLPCVPGIISIWWVPESARWLLTQGRVEEAKKYLLSCAKLNGRPVGEGSLSQEALNNVVTMERALQRPSYLDLFRTSQLRHISLCCMMVWFGVNFSYYGLTLDVSGLGLNVYQTQLLFGAVELPSKIMVYFLVRRLGRRLTEAGMLLGAALTFGTSLLVSLETKSWITALVVVGKAFSEAAFTTAYLFTSELYPTVLRQTGLGLTALMGRLGASLAPLAALLDGVWLLLPKVAYGGIALVAACTALLLPETKKAQLPETIQDVERKSTQEEDV,Vmax,other: rat hepatic sinusoidal uptake Oat2 (also renal apical),0.00144 ± 7.4e-05 µmol/min/mg
